# From US7132425B2, “5-substituted-six-membered heteroaromatic glucokinase activators” (Hoffmann-La Roche Inc., priority 2002, dated 2006)
# Tested on: C57BL/6J mice
# Assay: Glucokinase activator in vivo screen (blood glucose after oral dosing)
# Settings: oral gavage 50 mg/kg after two hour fast, readings 1, 2, 4 and 6 hours post dose, p≦0.05 for two consecutive assay time points
# Method: Glucokinase Activator in vivo Screen Protocol: C57BL/6J mice are orally dosed via gavage with Glucokinase (GK) activator at 50 mg/kg body weight following a two hour fasting period. Blood glucose determinations are made five times during the six hour post-dose study period.
# Mice (n=6) are weighed and fasted for a two hour period prior to oral treatment. GK activators are formulated at 6.76 mg/ml in Gelucire vehicle (Ethanol:Gelucire44/14:PEG400q.s. 4:66:30 v/w/v. Mice are dosed orally with 7.5 μL formulation per gram of body weight to equal a 50 mg/kg dose. Immediately prior to dosing, a pre dose (time zero) blood glucose reading is acquired by snipping off a small portion of the animal's tail (˜1 mm) and collecting 15 μL blood into a heparinized capillary tube for analysis. Following GK activator administration, additional blood glucose readings are taken at 1, 2, 4 and 6 hours post dose from the same tail wound. Results are interpreted by comparing the mean blood glucose values of six vehicle treated mice with six GK activator treated mice over the six hour study duration.
row,SMILES,decrease in blood glucose compared to vehicle
1,"CSc1cnc(NC(=O)[C@H](CC2CCCC2)c2ccc(S(C)(=O)=O)c(Cl)c2)cn1 [Example 4, 2(R)-(3-Chloro-4-methanesulfonyl-phenyl)-3-cyclopentyl-N-(5-methylsulfanyl-pyrazin-2-yl)-propionamide]",statistically significant (p≦0.05) decrease in blood glucose
2,"CS(=O)(=O)Cc1cnc(NC(=O)[C@H](CC2CCCC2)c2ccc(S(C)(=O)=O)c(Cl)c2)cn1 [Example 31, 2(R)-(3-Chloro-4-methanesulfonyl-phenyl)-3-cyclopentyl-N-(5-methanesulfonylmethyl-pyrazin-2-yl)-propionamide]",statistically significant (p≦0.05) decrease in blood glucose
3,CS(=O)(=O)c1ccc([C@@H](CC2CCCC2)C(=O)Nc2cnc(OC[C@H](O)CO)cn2)cc1Cl [Example 44],statistically significant (p≦0.05) decrease in blood glucose
4,"CS(=O)(=O)c1ccc([C@@H](CC2CCCC2)C(=O)Nc2cnc(OC[C@@H](O)CO)cn2)cc1Cl [Example 49, 2(R)-(3-Chloro-4-methanesulfonyl-phenyl)-3-cyclopentyl-N-[5-(2(S),3-dihydroxy-propoxy)-pyrazin-2-yl]-propionamide]",statistically significant (p≦0.05) decrease in blood glucose
5,"CS(=O)(=O)c1ccc([C@@H](CC2CCCC2)C(=O)Nc2cnc(C#CC3(O)CCOCC3)cn2)cc1Cl [Example 50, 2(R)-(3-Chloro-4-methanesulfonyl-phenyl)-3-cyclopentyl-N-[5-(4-hydroxy-tetrahydropyran-4-yl-ethynyl)-pyrazin-2-yl]-propionamide]",statistically significant (p≦0.05) decrease in blood glucose
6,"CC(C)(O)C#Cc1cnc(NC(=O)[C@H](CC2CCCC2)c2ccc(S(C)(=O)=O)c(Cl)c2)cn1 [Example 52, 2(R)-(3-Chloro-4-methanesulfonyl-phenyl)-3-cyclopentyl-N-[5-(3-hydroxy-3-methyl-but-1-ynyl)-pyrazin-2-yl]-propionamide]",statistically significant (p≦0.05) decrease in blood glucose
7,"CC(C)(O)[C@@H](O)c1cnc(NC(=O)[C@H](CC2CCCC2)c2ccc(S(C)(=O)=O)c(Cl)c2)cn1 [Example 66, 2(R)-(3-Chloro-4-methanesulfonyl-phenyl)-3-cyclopentyl-N [5-(1(S),2-dihydroxy-2-methyl-propyl)-pyrazin-2-yl]-propionamide]",statistically significant (p≦0.05) decrease in blood glucose
